Assay: Ex vivo skin permeation, static Franz-type diffusion cells, HPLC-DAD relative quantification
Assay type: in vitro ADME, porcine
Conditions: for Mean Flux Based on AUC/cm^2/h (relative mass flux): infinite dose 500 mg, 32 °C, n = 9 cells
Method: Skin permeation studies were performed using dermatomed porcine ear skin and static Franz-type diffusion cells (PermeGear, Hellertown, PA, USA, permeation area of 0.95 cm^2, acceptor volume of 2 mL). Porcine ears were obtained after sacrifice from a local abattoir (Johann Gantner GmbH, Gemeinde Hollabrunn, Austria, male and female animals at six months of age). The ears were cleaned under running water and were dried and stored at −18 °C until use.
Fresh vehicles were prepared 48 h before the start of the experiments. Skin from the dorsal side of the ears was cut to a thickness of 400 µm with a dermatome (Aesculap GA 630 DBP, Aesculap AG, Tuttlingen, Germany). Hair was removed with scissors. The skin was cut into 1 × 1 cm pieces and was clamped between donor and acceptor chamber. The acceptor medium consisted of a mixture of phosphate-buffered saline and ethanol (60:40% v/v) to ensure sink conditions. The phosphate-buffered saline was prepared as described in the Pharmacopoeia Europaea (0.012 M, pH of 7.4, 0.238% w/w sodium monohydrogen phosphate, 0.019% w/w potassium dihydrogen phosphate, and 0.8% w/w sodium chloride). Before starting the experiments, the transepidermal water loss (TEWL) was measured with a closed-chamber device and a coupling adapter (Aquaflux® AF200, Biox Systems Ltd., London, UK) to ensure consistent skin quality and barrier function.
The ointments were applied to the donor chambers at infinite dose conditions (500 mg of formulation). The donor compartment and sampling arm were occluded with Parafilm to prevent evaporation of sample or acceptor fluid. The diffusion cells were kept in a water bath at 32 °C to simulate skin surface temperature. Magnetic stirring was employed to avoid concentration layers within the acceptor fluid. Cells were regularly checked for air bubbles. After predefined intervals (2, 4, 6, 8, 24, 28, and 32 h), an aliquot of 200 μL of acceptor medium was taken for analysis and was replaced with fresh acceptor medium at 32 °C.
The most suitable formulation was chosen for analysis of permeation potential as well as the commercial product Picea-Salbe®. Three individual permeation experiments with n = 3 cells were performed for formulations and controls. The final results depict mean values ± SDs of n = 9 cells per formulation. As controls, the respective ointment bases without PSB as well as the plain acceptor medium alone were used.
For the analysis of samples drawn from Franz diffusion cells, a Shimadzu HPLC instrumentation with diode array detection (SHIMADZU Autosampler SIL-20AC HAT, SHIMADZU Column Oven CTO-20AC, SHIMADZU Communications Bus Module CBM-20A, SHIMADZU Degasser DGU-20A5, SHIMADZU Diode Array Detector SPD-M20A, SHIMADZU Liquid Chromatograph LC-20AD, SHIMADZU LabSolutions Software 5.81, Shimadzu, Kyoto, Japan) was used. A reversed-phase C18 column (LiChrospher 100 RP18e, 5 μm, 250 × 4 mm, Merck KGaA, Darmstadt, Germany) was employed as stationary phase. Double-distilled water + 0.1% formic acid (solvent A) and acetonitrile + 0.1% formic acid (solvent B) served as mobile phase, and gradient elution at 1 mL/min flow rate was applied as follows: 15% solvent B rose to 95% solvent B within 45 min (rate of 1.77%/min) followed by 5 min washing step at 98% solvent B and re-equilibration for 10 min with 15% solvent B. Samples drawn from Franz diffusion cells were centrifuged, and 10 μL were injected into the system. PSB samples were dissolved in acetone to a final concentration of 5 mg/mL, and 2 μL were analyzed. […]

Pinoresinol
total permeated amounts (AUC), comparison of the two ointments (after 32 h, lard ointment versus wool wax/castor oil ointment): significantly higher total permeated amounts were observed from the lard ointment
Enhancement Factor (mean flux from lard versus wool wax/castor oil): 2.8
Mean Flux Based on AUC/cm^2/h (relative mass flux) (vehicle lard (Picea-Salbe, 20% spruce balm)): 243.842 ± 93.731 AUC/cm^2/h
Mean Flux Based on AUC/cm^2/h (relative mass flux) (vehicle wool wax/castor oil with 20% PSB (batch PSB5)): 87.258 ± 27.553 AUC/cm^2/h
time after which detectable in acceptor samples (wool wax/castor oil and Picea-Salbe ointments): 8 h
